Results published in PubChem BioAssay AID588489 (Sanford-Burnham Center for Chemical Genomics, 2011).
The entries are a selection whose mix differs from that of the whole data set. Some salts or complexes appear as unconnected parts, following the source record. Active and inactive are the calls of the source. Cut-off read from the data, not from the text of the source: active = inhibition above about 35% (passing the limit was not always enough); inactive = the rest.

Protein sequences, listed by entry. Tags and fused reporters are not part of them.
UniProt P11940, whole entry: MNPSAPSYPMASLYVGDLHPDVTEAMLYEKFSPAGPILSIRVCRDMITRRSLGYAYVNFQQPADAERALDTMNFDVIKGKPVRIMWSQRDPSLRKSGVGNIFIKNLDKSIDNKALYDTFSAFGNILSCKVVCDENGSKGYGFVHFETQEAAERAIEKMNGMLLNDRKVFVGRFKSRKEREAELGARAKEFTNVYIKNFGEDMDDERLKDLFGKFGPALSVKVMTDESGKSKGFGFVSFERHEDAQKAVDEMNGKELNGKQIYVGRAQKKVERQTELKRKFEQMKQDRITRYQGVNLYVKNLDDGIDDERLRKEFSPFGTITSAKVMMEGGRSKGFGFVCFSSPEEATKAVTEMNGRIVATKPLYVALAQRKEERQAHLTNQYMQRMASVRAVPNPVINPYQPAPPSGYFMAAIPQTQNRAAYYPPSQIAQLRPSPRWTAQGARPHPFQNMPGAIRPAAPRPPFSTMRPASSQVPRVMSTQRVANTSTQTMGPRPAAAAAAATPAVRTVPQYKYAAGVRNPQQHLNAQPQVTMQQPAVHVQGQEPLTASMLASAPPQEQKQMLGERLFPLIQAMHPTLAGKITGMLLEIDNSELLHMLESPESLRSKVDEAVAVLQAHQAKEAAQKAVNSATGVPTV

target: Polyadenylate-binding protein 1 (Homo sapiens) (UniProt P11940); experiment: inhibitors of PABP1 MLLE–PAM2 peptide binding, primary screen, biochemical, fluorescence polarization, FITC-PAM2, GST-MLLE (AID 588489); conditions: at 20 µM, hits give high values;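 note: plate controls were DMSO wells with GST-MLLE for no effect and wells lacking GST-MLLE protein for full effect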

| Structure (SMILES) | inhibition |
| --- | --- |
| Cc1cc(C)cc(OP(C)(N)=O)c1 (stereo not given) | inactive: 14.3% |
| COc1ccc(OP(C)(=O)Nc2cccc(F)c2)cc1 (stereo not given) | inactive: -8.69% |
| COc1ccccc1OP(C)(=O)Nc1cc(Cl)ccc1C (stereo not given) | inactive: -8.56% |
| Cc1ccc(NP(C)(=O)Oc2ccccc2)c(C)c1 (stereo not given) | inactive: 1.81% |
| COc1ccccc1OP(C)(=O)Nc1ccc(C)cc1 (stereo not given) | inactive: 6.27% |
| CCOC(=O)c1ccc(NP(C)(=O)Oc2ccccc2)cc1 (stereo not given) | inactive: 7.01% |
| O=[N+]([O-])c1ccc2c(c1)C=Nc1ccccc1O2 | inactive: 2.13% |
| Cc1cccc(C)c1OP(C)(N)=O (stereo not given) | inactive: 1.99% |
| CC(C)(C)c1ccc(OP(C)(=O)Nc2ccc(SC(F)(F)F)cc2)cc1 (stereo not given) | inactive: -16.5% |
| O=[N+]([O-])c1cc([N+](=O)[O-])c(Nc2cccnc2)c([N+](=O)[O-])c1 | inactive: 3.72% |
| CCN(CC)CCCOC(=O)C(O)(c1ccccc1)c1ccccc1 | inactive: 4.32% |
| CP(=O)(Nc1ccccn1)Oc1ccc(Cl)cc1 (stereo not given) | inactive: 7.81% |
| CCOC(=O)c1ccc(NP(C)(=O)Oc2ccc(OC)cc2)cc1 (stereo not given) | inactive: 11.7% |
| O=[N+]([O-])c1cc([N+](=O)[O-])c(O)c([N+](=O)[O-])c1.c1ccc(Oc2ccncc2)cc1 | inactive: -7.94% |
| CCOP(C)(=S)SCC(=O)NC(C)C(=O)O (stereo not given) | inactive: -6.52% |
| Cc1cc(C)cc(OP(C)(=O)Nc2ccc(SC(F)(F)F)cc2)c1 (stereo not given) | inactive: 10.7% |
| CCc1ccc(OP(C)(=O)N2CCN(c3ccc([N+](=O)[O-])cc3)CC2)cc1 (stereo not given) | inactive: 1.35% |
| CP(=O)(NC(=O)Nc1ccccc1)Oc1ccccc1 (stereo not given) | inactive: 2.39% |
| CP(=O)(Oc1ccccc1)OC(c1ccccc1)C(F)(F)F (stereo not given) | inactive: -1.07% |
| Cc1ccc(Nc2c([N+](=O)[O-])cc([N+](=O)[O-])cc2[N+](=O)[O-])cc1 | inactive: -9.88% |
| Cc1cccc(C)c1OP(C)(=O)Nc1ccc(SC(F)(F)F)cc1 (stereo not given) | inactive: 0.89% |
| CP(=O)(Nc1ccc(SC(F)(F)F)cc1)Oc1ccc(Cl)cc1 (stereo not given) | inactive: 3.65% |
| CP(=O)(Nc1ccccc1Br)Oc1ccccc1 (stereo not given) | inactive: 2.9% |
| COc1ccccc1OP(C)(=O)Nc1ccccc1 (stereo not given) | inactive: 18.4% |

| Structure (SMILES) | inhibition |
| --- | --- |
| CP(=S)(Nn1cnnc1)Oc1ccccc1 (stereo not given) | inactive: -0.06% |
| CP(=O)(Nc1ccc(SC(F)(F)F)cc1)Oc1ccccc1 (stereo not given) | inactive: -7.22% |
| CCCOc1ccc(NP(C)(=O)Oc2ccc(Cl)cc2)cc1 (stereo not given) | inactive: 0.24% |
| COc1ccccc1OP(C)(=O)Nc1c(C)cccc1C (stereo not given) | inactive: -10.9% |
| CN1CCCCC1COC(=O)C1(O)c2ccccc2CCc2ccccc21 (stereo not given) | inactive: -0.33% |
| CCOC(=O)C(CC)C1=NC(C)(C)Cc2ccccc21.O=[N+]([O-])c1cc([N+](=O)[O-])c(O)c([N+](=O)[O-])c1 (stereo not given) | inactive: -0.28% |
| O=[N+]([O-])c1cc([N+](=O)[O-])c(Nc2nnnn2CCO)c([N+](=O)[O-])c1 | inactive: -5.16% |
| CC1=C2N=C(C=C3N=C(C(C)=C4[N-][C@@](C)([C@@H]5N=C1[C@](C)(CCC(=O)NC[C@@H](C)OP(=O)([O-])O[C@H]1[C@@H](O)[C@@H](n6cnc7cc(C)c(C)cc76)O[C@@H]1CO)[C@H]5CC(N)=O)[C@@](C)(CC(N)=O)[C@@H]4CCC(N)=O)[C@@](C)(CC(N)=O)[C@@H]3CCC(N)=O)C(C)(C)[C@@H]2CCC(N)=O.[C-]#N.[Co+3] | inactive: -2.68% |
| Cc1nc2ccc3ccccc3c2s1.O=[N+]([O-])c1cc([N+](=O)[O-])c(O)c([N+](=O)[O-])c1 | inactive: -12.3% |
| O=[N+]([O-])c1cc([N+](=O)[O-])c(-c2cnn(-c3ccccc3)c2)c([N+](=O)[O-])c1 | inactive: -4.83% |
| CN(Cc1cccnc1)C(=O)COc1ccc(Cl)c(Cl)c1.O=[N+]([O-])c1cc([N+](=O)[O-])c(O)c([N+](=O)[O-])c1 | inactive: 4.25% |
| O=[N+]([O-])c1cc([N+](=O)[O-])c(-n2nnc3ccccc32)c([N+](=O)[O-])c1 | inactive: -11.6% |
| Cc1ccc(C)c(NP(C)(=O)Oc2ccccc2)c1 (stereo not given) | inactive: 4.29% |
| CP(=O)(Nc1cccc(Br)c1)Oc1ccccc1 (stereo not given) | inactive: -2.4% |
| Cc1cc(C)cc(OP(C)(=O)Nc2ccccn2)c1 (stereo not given) | inactive: 5.6% |
| CCOC(=O)c1ccc(NP(C)(=O)Oc2cc(C)cc(C)c2)cc1 (stereo not given) | inactive: 6.96% |
| Cc1cc(C)cc(OP(C)(=O)Nc2ccc(C)cc2C)c1 (stereo not given) | inactive: -4.05% |
| COc1ccccc1OP(C)(=O)Nc1cccc(Br)c1 (stereo not given) | inactive: 3.14% |
| CC1=NCCc2c1[nH]c1ccccc21.O=[N+]([O-])c1cc([N+](=O)[O-])c(O)c([N+](=O)[O-])c1 | inactive: 4.43% |
| O=C(O)c1cccc(Nc2c([N+](=O)[O-])cc([N+](=O)[O-])cc2[N+](=O)[O-])c1 | inactive: 0.22% |
| CP(=O)(Nc1ccccc1)Oc1ccc(F)cc1 (stereo not given) | inactive: -8.92% |
| CCCCCOc1ccc(NP(C)(=O)Oc2ccc(Cl)cc2Cl)cc1 (stereo not given) | inactive: -5.77% |
| O=[N+]([O-])c1cc([N+](=O)[O-])c(OC2CCCCC2O)c([N+](=O)[O-])c1 (stereo not given) | inactive: 1.07% |
| Cc1c([N+](=O)[O-])cc([N+](=O)[O-])c(Br)c1[N+](=O)[O-] | inactive: -16.9% |

| Structure (SMILES) | inhibition |
| --- | --- |
| CCN(CC)CCCOC(=O)C(O)(c1ccccc1)C1CCCCC1 (stereo not given) | inactive: -0.71% |
| CCOC(=O)c1ccc(NP(C)(=O)Oc2ccc(F)cc2)cc1 (stereo not given) | inactive: 4.46% |
| COc1ccc(OP(C)(=O)Nc2ccc(SC(F)(F)F)cc2)cc1 (stereo not given) | inactive: -4.11% |
| COc1ccc2c(c1O)-c1c(O)c(OC)cc3c1[C@H](C2)[N+](C)(C)CC3.O=[N+]([O-])c1cc([N+](=O)[O-])c([O-])c([N+](=O)[O-])c1[O-] | inactive: 13.1% |
| O=C(OC1CN2CCC1CC2)c1ccc([N+](=O)[O-])cc1 (stereo not given) | inactive: 5.48% |
| O=C(OCCN1CCN(CCOCc2ccccc2)CC1)C(O)(c1ccccc1)c1ccccc1 | inactive: -7.46% |
| CP(=O)(Nc1ccccc1F)Oc1ccccc1 (stereo not given) | inactive: -10.8% |
| CC(C)c1ccc(OP(C)(=O)Nc2ccc(SC(F)(F)F)cc2)cc1 (stereo not given) | inactive: -4.87% |
| O=[N+]([O-])c1cc([N+](=O)[O-])c(Nc2ccc(Cl)cc2)c([N+](=O)[O-])c1 | inactive: -10.2% |
| Cc1ccccc1NP(C)(=O)Nc1ccccc1C | inactive: 3.54% |
| CP(=O)(Nc1ccc2c(c1)OCCO2)Oc1ccccc1 (stereo not given) | inactive: -14.1% |
| CCOP(C)(=S)SCC(=O)NC(C)(CC)C(=O)O (stereo not given) | inactive: 12.3% |
| CP(=O)(Nc1ccc(SC(F)(F)F)cc1)Oc1ccc(F)cc1 (stereo not given) | inactive: -1.94% |
| Cc1c(C(c2ccc3c(c2)OCO3)c2c(C)n(C)n(-c3ccccc3)c2=O)c(=O)n(-c2ccccc2)n1C.O=[N+]([O-])c1cc([N+](=O)[O-])c(O)c([N+](=O)[O-])c1 | inactive: 4.11% |
| O=[N+]([O-])c1ccc(OP2(=O)COCCO2)cc1 (stereo not given) | inactive: -3.9% |
| Cc1cc(-c2cccc3ccccc23)c(C)cn1.O=[N+]([O-])c1cc([N+](=O)[O-])c(O)c([N+](=O)[O-])c1 | inactive: 13.2% |
| O=[N+]([O-])c1cc([N+](=O)[O-])c(NCC2CCS(=O)(=O)C2)c([N+](=O)[O-])c1 (stereo not given) | inactive: -8.09% |
| CN(C)CCOC(=O)C(O)(c1ccccc1)C1CCCCC1 (stereo not given) | inactive: 1.13% |
| COc1ccc(NP(C)(=O)Oc2ccccc2OC)cc1 (stereo not given) | inactive: 2.85% |
| COc1ccc(OP(C)(=O)Nc2cccc(Br)c2)cc1 (stereo not given) | inactive: 1.8% |
| CCOC(=O)c1ccc(NP(C)(=O)Oc2ccc(Cl)cc2)cc1 (stereo not given) | inactive: 4.11% |
| CP(=O)(OC12CC3CC(CC(C3)C1)C2)OC12CC3CC(CC(C3)C1)C2 | inactive: -18.6% |
| CN(C)C(=O)c1c([N+](=O)[O-])cc([N+](=O)[O-])cc1[N+](=O)[O-] | inactive: 9.36% |
| CC(C)(C)c1ccc(OP(C)(=O)O)cc1 | inactive: -5.47% |

| Structure (SMILES) | inhibition |
| --- | --- |
| COc1ccccc1OP(C)(=O)Nc1ccccc1Br (stereo not given) | inactive: -0.58% |
| CP(=O)(Nc1ccc(Cl)cc1)Oc1ccc(F)cc1 (stereo not given) | inactive: 2% |
| O=C(OCCCN1CCCC1)C(O)(c1ccccc1)C1CCCCC1 (stereo not given) | inactive: -13.5% |
| COc1ccccc1OP(C)(=O)Nc1c(C)n(C)n(-c2ccccc2)c1=O (stereo not given) | inactive: -2.33% |
| CCc1ccc(OP(C)(=O)Nc2cccnc2)cc1 (stereo not given) | inactive: -2.01% |
| CP(=O)(Oc1ccccc1)N1CCOC1=O (stereo not given) | inactive: -0.98% |
| COc1ccc(OP(C)(=O)Nc2ccc(Br)cc2)cc1 (stereo not given) | inactive: -3.02% |
| CCN(CC)CC(O)COC(=O)C(O)(c1ccccc1)C1CCCCC1 (stereo not given) | inactive: 2.72% |
| COc1ccccc1OP(C)(=O)Nc1ccc(C)cc1C (stereo not given) | inactive: 12.5% |
| CP(=O)(Nc1ccccn1)Oc1ccccc1 (stereo not given) | inactive: 2.61% |
| CCc1ccc(OP(C)(=O)O)cc1 | inactive: -9.1% |
| O=[N+]([O-])c1cc([N+](=O)[O-])c(Nc2ccccn2)c([N+](=O)[O-])c1 | inactive: -2.23% |
| Cc1c(NP(C)(=O)Oc2ccc(C(C)C)cc2)c(=O)n(-c2ccccc2)n1C (stereo not given) | inactive: -1.2% |
| COc1ccc(OP(C)(=O)Nc2ccccn2)cc1 (stereo not given) | inactive: 6.37% |
| CN(C)CCOC(=O)C(O)(c1ccccc1)C1CCCC1 (stereo not given) | inactive: -0.7% |
| COc1ccccc1OP(C)(=O)Nc1ccc(Br)cc1 (stereo not given) | inactive: -1.82% |
| CP(=O)(OCCOc1ccccc1)OCCOc1ccccc1 | inactive: 6.85% |
| CCCCCCCCCCCCCCCC1C[N+](C)(C)CCOP(C)(=O)O1 (stereo not given) | inactive: 10.7% |
| CP(=O)(Nc1ccc(Cl)cc1Cl)Oc1ccccc1 (stereo not given) | inactive: -11.4% |
| COc1ccccc1OP(C)(=O)Nc1ccc(C)c(C)c1 (stereo not given) | inactive: 3.08% |
| COc1ccc(OP(C)(=O)Nc2ccccc2Br)cc1 (stereo not given) | inactive: 10.5% |
| Cc1cc(C)cc(OP(C)(=O)Nc2cccc(C(F)(F)F)c2)c1 (stereo not given) | inactive: 6.16% |
| O=C1C(O)=C([N+](=O)[O-])C(=O)C(O)=C1[N+](=O)[O-] | inactive: 1.47% |
